{"sequences": {"note": "By UniProt entry, the sequences of proteins in these tests, tags left out. Residues count along the entry.", "UniProt P16444, 17-385 limits assumed": "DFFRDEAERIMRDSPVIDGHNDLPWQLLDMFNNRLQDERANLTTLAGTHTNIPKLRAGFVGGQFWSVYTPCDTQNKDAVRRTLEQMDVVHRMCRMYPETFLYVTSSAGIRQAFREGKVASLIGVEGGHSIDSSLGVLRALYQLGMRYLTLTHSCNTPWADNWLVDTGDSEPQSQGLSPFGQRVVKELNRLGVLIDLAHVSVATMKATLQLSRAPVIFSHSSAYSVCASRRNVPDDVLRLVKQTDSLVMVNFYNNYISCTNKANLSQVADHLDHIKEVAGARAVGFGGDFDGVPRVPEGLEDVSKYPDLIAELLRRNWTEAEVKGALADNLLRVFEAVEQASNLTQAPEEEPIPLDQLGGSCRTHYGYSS"}, "source": "patent US7785564B2", "about": "“Design and synthesis of renal dipeptidase inhibitors” (The Johns Hopkins University, priority 2002, dated 2010)", "key": {"Renal Dipeptidase (RDP) [1]": {"biological_target": "T1, Renal Dipeptidase (RDP) (Homo sapiens, UniProt P16444)"}, "Renal Dipeptidase (RDP) [2]": {"biological_target": "T1, Renal Dipeptidase (RDP)", "experiment": "RDP inhibition assay (IC50), small intestine lysate, fluorogenic substrate ε-DNP-L-Lys-D-Amp", "conditions": "read-out: RDP inhibition IC50, Table 2"}}, "note": "Read-outs that look alike come from different tables or passages of the source.", "data": [{"compound": "NC(CC1CCCCC1)P(=O)(O)C/C(=C\\c1ccccc1I)C(=O)O", "note": "(centres unmarked)", "values": [{"measurement": "IC50", "setting": "Renal Dipeptidase (RDP) [1]", "result": 300, "unit": "nM"}, {"measurement": "IC50", "setting": "Renal Dipeptidase (RDP) [2]", "result": 100, "unit": "nM"}]}]}
